Consider five compounds from BindingDB's records for doi:10.1016/j.chembiol.2010.06.011 (Leiden University, 2010).

The term IC50 denotes the point on the concentration scale where inhibition reaches its midpoint. The low end stands for greater potency in that assay, the high end for weaker potency in that assay.

In the experiment the target is T1, Disulfide bond formation protein B (Escherichia coli (strain K12), UniProt P0A6M2).
T1 sequence (P0A6M2 whole entry): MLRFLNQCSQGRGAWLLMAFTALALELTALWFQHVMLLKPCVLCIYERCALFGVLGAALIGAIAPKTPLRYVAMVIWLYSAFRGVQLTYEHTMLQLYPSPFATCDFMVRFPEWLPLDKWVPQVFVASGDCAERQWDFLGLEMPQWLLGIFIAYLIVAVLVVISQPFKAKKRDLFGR
Description: Biochemical Assay. The conditions noted are these: pH 6.2; 30 °C. From the text: 13 fragments with strong inhibition in the single concentration point assay were chose from the micelle screen for further analysis using a biochemical assay.
For `Cc1cc(C(=O)O)c(C)n1Cc1ccccc1`, the IC50 was found to be 13 µM.

As for `CC1(C)CC(=O)N(CC(=O)O)c2ccccc2S1` [2-(2,2-dimethyl-4-oxo-3H-1,5-benzothiazepin-5-yl)acetic acid], the IC50 was found to be 168 µM.

`O=C(COc1ccccc1)Nc1ccc(O)cc1` [Fragment 3] registered an IC50 of 193 µM. As for `O=c1cc(O)c2ccc(Cl)cc2[nH]1` [Fragment 5], the figure is 46 µM; as for `Cc1ccc2scc(CC(=O)O)c2c1` [Fragment 7], 115 µM.
